Curated experimental data: properties

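The OPERA project collected these measurements from public sources as training and test data for property models. The files give a single number for a compound and property, which may rest on several reports. Method and conditions are not stated for these values. A value may pool stereoisomers or salt forms, and the file does not say which form was measured. Some upstream entries may be estimates or bounds without being marked so.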

Melting points are in °C. The boiling point refers to atmospheric pressure (760 mmHg), by the definition of the set. logP is the log10 of the octanol-water partition coefficient; higher is more lipophilic. Solubility in water is on a log10 molar scale (set defined at 25 °C). Vapor pressure is log10 of mmHg; the set covers 15 to 30 °C, mostly 20 to 25 °C. The Henry's law constant is on a log10 scale in atm·m3/mol (set defined at 25 °C); higher favours air over water. The unbound fraction in human plasma runs from 0 (all bound) to 1 (all free). Clint is human hepatic intrinsic clearance in µL/min per million cells; 0 means that no clearance was seen. "n/a" marks a cell with nothing listed here.

| compound | name | MP (°C) | BP (°C) | logP (octanol/water) | water solubility (log10 mol/L) | log VP (log10 mmHg) | log Henry constant (log10 atm·m3/mol) | plasma fu | Clint (µL/min/10^6 cells) |
|---|---|---|---|---|---|---|---|---|---|
| CCc1cccc(C)c1N | 2-Ethyl-6-methylaniline | n/a | n/a | n/a | -1.706 | -1.274 | n/a | n/a | n/a |
| O=[N+]([O-])c1ccccc1 | Nitrobenzene | n/a | n/a | n/a | n/a | n/a | n/a | 0.3844 | 8.168 |
| COc1ccc(C)cc1N | 2-Methoxy-5-methylaniline | n/a | n/a | n/a | -1.899 | -1.979 | n/a | 0.4043 | n/a |
| Cc1c(C(=O)c2cnn(C)c2O)ccc(S(C)(=O)=O)c1C1=NOCC1 | Topramezone | 222 | n/a | n/a | -0.561 | n/a | n/a | n/a | n/a |
| N#Cc1ccc(N)cc1 | Benzonitrile, 4-amino- | n/a | n/a | 1 | n/a | -4.643 | n/a | n/a | n/a |
| CC(C)[C@@H](Nc1ccc(C(F)(F)F)cc1Cl)C(=O)OC(C#N)c1cccc(Oc2ccccc2)c1 (some centres undefined) | tau-Fluvalinate | -14.1 | n/a | n/a | n/a | n/a | -8.927 | n/a | n/a |
| CCCCC(CC)C(=O)OOC(C)(C)C (stereo not drawn) | Hexaneperoxoic acid, 2-ethyl-, 1,1-dimethylethyl ester | n/a | n/a | 4.79 | -3.67 | -1.736 | n/a | n/a | n/a |
| CC(C)c1cc(Cc2cc(C(C)C)c(N)c(C(C)C)c2)cc(C(C)C)c1N | Benzenamine, 4,4'-methylenebis[2,6-bis(1-methylethyl)- | 60.8 | 375 | 5.68 | n/a | n/a | n/a | n/a | n/a |
| Brc1ccc(Oc2c(Br)cc(Br)cc2Br)c(Br)c1 | 2,2',4,4',6-Pentabromodiphenyl ether | 98.75 | n/a | n/a | -7.084 | -6.613 | n/a | n/a | n/a |
| O=C(O)c1cc(Oc2ccc(C(F)(F)F)cc2Cl)ccc1[N+](=O)[O-] | Acifluorfen | n/a | n/a | n/a | n/a | -6.001 | n/a | 0.0068 | 0 |
| CC(C)(C)C(=O)O[C@H]1CC[C@@]2(C)C(=C[C@H](O)[C@H]3[C@@H]4[C@@H]5C[C@@H]5C(=O)[C@@]4(C)CC[C@@H]32)C1 | n/a | n/a | n/a | 4.17 | -5.155 | n/a | n/a | n/a | n/a |
| CCCOC(=O)OOC(=O)OCCC | Dipropyl peroxydicarbonate | n/a | n/a | 2.96 | -3.976 | 0.429 | n/a | n/a | n/a |
| COC(=O)c1ccccc1CS(=O)(=O)NC(=O)Nc1nc(OC)cc(OC)n1 | Bensulfuron-methyl | n/a | n/a | n/a | n/a | n/a | n/a | 0.005775 | 1.65 |
| O=C(NC(=O)c1c(F)cccc1F)Nc1ccc(Cl)cc1 | Diflubenzuron | n/a | 257 | n/a | -6.4 | n/a | n/a | 0.0308 | 0 |
| CCOC(=O)Cc1ccccc1 | Ethyl phenylacetate | n/a | n/a | n/a | -2.34 | -0.696 | n/a | n/a | n/a |
| CCCCC(C#N)(Cn1cncn1)c1ccc(Cl)cc1 (stereo not drawn) | Myclobutanil | n/a | n/a | n/a | -3.315 | -5.796 | n/a | 0.08338 | 16.4 |
| Cc1cc(C)c(C2=C(OC(=O)CC(C)(C)C)C3(CCCC3)OC2=O)c(C)c1 | Spiromesifen | n/a | n/a | 7.5 | -6.45 | n/a | -6.705 | n/a | n/a |
| C[C@@H]1CN([C@H]2CC[C@](C#N)(c3ccc(F)cc3)CC2)CC[C@]1(C(=O)O)c1ccccc1 | Levocabastine | n/a | n/a | 5 | -5.083 | n/a | n/a | 0.45 | n/a |
| C[C@]12CC[C@@H]3C4=C(CC[C@H]3[C@@H]1CC[C@@H]2O)CC(=O)CC4 | 17-Hydroxy-estr-5(10)-en-3-one | n/a | n/a | 3.1 | -4.947 | n/a | n/a | n/a | n/a |
| Nc1c(Cl)c(Cl)nc(C(=O)O)c1Cl | Picloram | n/a | n/a | n/a | n/a | n/a | n/a | 0.1163 | 0 |
| CCCCC(CC)C(=O)OOC(C)(C)CC (stereo not drawn) | Hexaneperoxoic acid, 2-ethyl-, 1,1-dimethylpropyl ester | n/a | n/a | 4.56 | -4.117 | n/a | n/a | n/a | n/a |
| CNC1=C(c2cccc(C(F)(F)F)c2)C(=O)C(c2ccccc2)O1 (stereo not drawn) | Flurtamone | 152 | n/a | 3.22 | -4.489 | -8.471 | -9.892 | n/a | n/a |
| CCCCCCCCCCCOC(=O)c1ccccc1C(=O)OCCCCCCCCCCC | Diundecyl phthalate | -9 | n/a | n/a | -5.631 | -8.001 | n/a | n/a | n/a |
| O=P([O-])([O-])c1ccccc1.[Zn+2] | Phosphonic acid, P-phenyl-, zinc salt (1:1) | n/a | n/a | n/a | -4.459 | -8.727 | n/a | n/a | n/a |
| CCCCC(CC)COC(=O)c1c(Br)c(Br)c(Br)c(Br)c1C(=O)OCC(CC)CCCC (stereo not drawn) | Bis(2-ethylhexyl) tetrabromophthalate | -27 | n/a | 10.2 | n/a | n/a | n/a | n/a | n/a |
| C=CC(=O)OCCN=C=O | 2-Propenoic acid, 2-isocyanatoethyl ester | n/a | n/a | 1.6 | n/a | 0.547 | n/a | n/a | n/a |
| CC(C)(C)OOC(=O)C(C)(C)C | Propaneperoxoic acid, 2,2-dimethyl-, 1,1-dimethylethyl ester | n/a | n/a | 3.17 | -2.068 | n/a | n/a | n/a | n/a |
| COc1cc(OC)nc(NC(=O)NS(=O)(=O)c2ncccc2C(F)(F)F)n1 | Flazasulfuron | n/a | n/a | 1.08 | -2.29 | -7.001 | -10.59 | n/a | n/a |
| CC(C)CC(C)c1sccc1NC(=O)c1cn(C)nc1C(F)(F)F (stereo not drawn) | Penthiopyrad | n/a | n/a | n/a | -4.68 | -7.317 | n/a | n/a | n/a |
| CC(=O)OC1N=C(c2ccccc2Cl)c2cc(Cl)ccc2N=C1O (stereo not drawn) | n/a | 261 | n/a | n/a | -5.029 | n/a | n/a | n/a | n/a |

Data: OPERA 2.9 data sets, kmansouri/OPERA on GitHub.